B1: P12-F-XB on neutravidin-HRP (peptide)
peptide: AGPTWCEDDWYYCWLFGTK
modifications: Ac-; Cys6-Cys13 disulfide assumed by paragraph 574; J between Thr18 and the C-terminal Lys; Lys(Biotin-JJ); -NH2

Protein sequences, listed by entry. Tags and fused reporters are not part of them. Residues count along the entry.
UniProt P35968, 20-1356: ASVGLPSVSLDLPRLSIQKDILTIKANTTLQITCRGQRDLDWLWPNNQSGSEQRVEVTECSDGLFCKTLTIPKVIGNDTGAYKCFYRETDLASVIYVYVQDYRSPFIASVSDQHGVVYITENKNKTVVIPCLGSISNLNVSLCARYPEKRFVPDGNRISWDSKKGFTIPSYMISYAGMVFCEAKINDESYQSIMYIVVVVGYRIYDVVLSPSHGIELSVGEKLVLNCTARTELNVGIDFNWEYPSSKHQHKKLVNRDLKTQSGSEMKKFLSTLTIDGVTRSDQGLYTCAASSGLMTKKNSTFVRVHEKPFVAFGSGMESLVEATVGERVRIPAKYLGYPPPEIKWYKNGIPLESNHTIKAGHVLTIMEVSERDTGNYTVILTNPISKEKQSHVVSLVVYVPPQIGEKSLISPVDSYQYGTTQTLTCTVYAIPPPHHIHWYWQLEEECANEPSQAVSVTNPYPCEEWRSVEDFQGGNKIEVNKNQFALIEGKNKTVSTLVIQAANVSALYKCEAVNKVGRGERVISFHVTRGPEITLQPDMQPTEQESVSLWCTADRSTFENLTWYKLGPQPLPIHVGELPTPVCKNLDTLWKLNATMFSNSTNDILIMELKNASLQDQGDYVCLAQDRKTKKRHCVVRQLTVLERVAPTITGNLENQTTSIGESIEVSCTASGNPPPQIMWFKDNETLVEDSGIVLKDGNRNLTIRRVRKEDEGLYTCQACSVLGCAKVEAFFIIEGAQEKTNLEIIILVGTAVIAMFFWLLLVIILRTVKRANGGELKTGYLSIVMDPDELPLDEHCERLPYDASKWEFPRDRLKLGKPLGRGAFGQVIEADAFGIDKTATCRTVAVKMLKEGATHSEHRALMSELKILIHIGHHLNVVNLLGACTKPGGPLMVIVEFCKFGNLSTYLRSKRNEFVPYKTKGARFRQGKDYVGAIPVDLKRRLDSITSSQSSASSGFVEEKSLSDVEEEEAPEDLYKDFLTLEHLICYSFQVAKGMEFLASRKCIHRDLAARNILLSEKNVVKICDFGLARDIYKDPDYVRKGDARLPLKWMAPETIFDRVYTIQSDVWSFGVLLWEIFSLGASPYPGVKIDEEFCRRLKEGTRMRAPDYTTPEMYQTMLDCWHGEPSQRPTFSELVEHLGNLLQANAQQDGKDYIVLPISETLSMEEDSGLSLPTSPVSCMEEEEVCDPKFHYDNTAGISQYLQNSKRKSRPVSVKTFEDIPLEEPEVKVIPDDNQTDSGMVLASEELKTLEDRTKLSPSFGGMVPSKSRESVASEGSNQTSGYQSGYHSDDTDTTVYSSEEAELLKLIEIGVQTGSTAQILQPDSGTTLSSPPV

What was measured:
[1] = target: KDR (VEGFR-2, Flk-1), full-length receptor on cells (human) (UniProt P35968); experiment: saturation binding of peptide/neutravidin-HRP complex to KDR-transfected 293H cells; P12-F-XB, one experiment
[2] = target: KDR (VEGFR-2, Flk-1), full-length receptor on cells (human), P35968; experiment: saturation binding of peptide/neutravidin-HRP complex, KDR- minus mock-transfected 293H cells; conditions: remark: other sources report otherwise

Row | Binder | Kd [1] [nM] | Kd [2] [nM]
1 | B1 | 3.02 | –
2 | AGPKWCEEDWYYCMITGTGGGK (here or on the partner: Ac-; C6-C13 disulfide; K22(Biotin-JJ); -NH2) [P5-XB (4X) on neutravidin-HRP] | – | 14.9

From patent US20050147555A1
